Assay: Global PBPK model fitted to mouse plasma and tissue PK data
Type: in vivo
Details: mice

CC(C)C[C@H](NC(=O)[C@H](Cc1ccccc1)NC(=O)c1cnccn1)B(O)O [Bortezomib]
Permeability (PStc,ti) (Bone, model estimate): 0.072 mL/min | Permeability (PStc,ti) (Erythrocyte, fixed to estimate from individual tissue fitting stage): 17.0 mL/min | Permeability (PStc,ti) (Kidney, model estimate): 0.069 mL/min | Permeability (PStc,ti) (Lung, model estimate): 0.013 mL/min | Permeability (PStc,ti) (Remainder compartment, model estimate): 4.17 mL/min | Permeability (PStc,ti) (Spleen, model estimate): 0.01 mL/min

Reference: paper PMC4620045 (Journal of pharmacokinetics and pharmacodynamics, 2015)
